Test results reported in patent publication US20070185193A1, “Huvastatin and its preparation and formulation comprising the huvastatin” (HUAIBEI HUIKE PHARMACEUTICAL, CO. LTD., priority 2003, published 2007).

By UniProt entry, the sequences of proteins in these tests, tags left out.
UniProt P04035, whole entry: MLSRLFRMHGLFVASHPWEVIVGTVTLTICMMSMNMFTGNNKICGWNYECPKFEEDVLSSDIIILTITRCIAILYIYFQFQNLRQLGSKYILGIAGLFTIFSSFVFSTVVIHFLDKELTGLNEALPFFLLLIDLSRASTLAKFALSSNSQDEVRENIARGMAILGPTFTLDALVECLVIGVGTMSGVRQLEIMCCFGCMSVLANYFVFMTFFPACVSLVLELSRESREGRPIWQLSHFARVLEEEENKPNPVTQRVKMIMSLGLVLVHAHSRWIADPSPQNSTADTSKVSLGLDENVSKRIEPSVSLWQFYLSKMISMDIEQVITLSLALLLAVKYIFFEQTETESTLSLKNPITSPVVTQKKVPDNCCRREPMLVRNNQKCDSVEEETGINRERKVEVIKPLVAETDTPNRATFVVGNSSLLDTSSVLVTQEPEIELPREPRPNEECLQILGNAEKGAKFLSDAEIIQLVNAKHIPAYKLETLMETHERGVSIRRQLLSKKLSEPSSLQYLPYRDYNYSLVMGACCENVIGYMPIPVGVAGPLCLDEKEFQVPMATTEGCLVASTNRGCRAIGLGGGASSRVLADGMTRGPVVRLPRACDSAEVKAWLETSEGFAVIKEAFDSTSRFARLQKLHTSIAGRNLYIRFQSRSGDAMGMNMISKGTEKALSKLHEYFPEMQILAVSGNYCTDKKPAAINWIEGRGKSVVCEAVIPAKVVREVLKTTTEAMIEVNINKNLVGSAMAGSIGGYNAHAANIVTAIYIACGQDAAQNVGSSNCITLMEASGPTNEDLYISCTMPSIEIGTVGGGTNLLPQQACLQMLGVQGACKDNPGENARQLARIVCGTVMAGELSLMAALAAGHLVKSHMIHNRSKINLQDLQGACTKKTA

Columns and labels:
[1] = log D determined at pH 7.4; settings: tested form: K salt
[2] = tested on: rats; assay: Animal test: blood lipid level and cholesterol in rats; settings: twice per day, 0.05 or 0.1 mg/dose/rat, blood samples after one week, tested form: K salt
[3] = target: HMG-CoA reductase (Homo sapiens, UniProt P04035); assay: Inhibiting constant Ki of statins with HMG-CoA (reductase), conventional methods; format: biochemical; settings: read-out: Ki (inhibiting constant with HMG-CoA); tested form: K salt

log D [1]: 0.42
Ki [3]: 7.3 nM
Structure (SMILES): CCC(C)(C)C(=O)O[C@H]1C[C@@H](O)C=C2C=C[C@H](C)[C@H](CC[C@@H](O)C[C@@H](O)CC(=O)O)[C@H]21
blood lipid versus control group [2]: lower than that of the control group
lipid-lowering effect, comparison among Compounds 1-3 [2]: best lipid-lowering effect
